The values below are quoted from earlier work in article PMC3947039 (ACS chemical biology, 2013).

Molecules are shown by their SMILES.

This series deals with MMP-3. The following applies: read-out: Ki MMP-3; competitive; cited from earlier work.

Turning to `Nc1ccc(Oc2ccc(S(=O)(=O)CC3CS3)cc2)cc1` (stereo not shown) [ND-322], the Ki (as a rule, the dissociation constant of the complex between target and ligand, obtained from inhibition or displacement) was 23.4 ± 1.6 µM.
